Laboratory results as given in patent US20240327356A1, “PYRIMIDINE BASED RAS MODULATORS AND USES THEREOF” (QUANTA THERAPEUTICS, INC., priority 2021, published 2024).

System: Phospho-ERK (Thr202/Tyr204) in MiaPaCa-2 cells
Assay: pERK inhibition in MiaPaca-2 cell line (HTRF)
Details: read-out: MiaPaca-2 pERK IC50, 1 hour incubation with compound
Method: MiaPaCa-2 cells (ATCC CRL-1420) were cultured in high glucose DMEM (Gibco 11965092) containing 10% fetal bovine serum (Gibco 1993708) and 1× Penicillin/Streptomycin, at 37° C. in a humid atmosphere of 5% CO2 in the air. Cells were plated in tissue-culture treated 96-well plates at a density of 10,000 cells/well and allowed to attach for 16 hours. The medium was then removed, and diluted compounds were added in a final concentration of 0.5% DMSO. After 1 hour of incubation, cells were lysed by the lysis buffer supplied with the Phospho-ERK (Thr202/Tyr204) cellular HTRF kit (Cisbio 64ERKPEH) and transferred to a 384-well low-volume white plate (PerkinElmer 6008280). The cell lysates were treated with the detection reagents supplied with the HTRF kit for 4 hours at ambient temperature in darkness. Two fluorescence intensities at the wavelengths (665 and 620 nm) were measured by the Envision plate reader (Perkin Elmer), and the data were processed and fitted to a 4-parameter logistic model for IC50 calculation (GraphPad Prism 9).

IC50: 1 to 10 µM
SMILES: Cc1ccc(-c2ncc(CNC(=O)C3(F)CC3)c(N3[C@@H]4CC[C@H]3C[C@H](N)C4)n2)cc1Cl
